## Binding of CDR-mutated scFvs to a peptide of the spike HR2 region

Values reported by Engelhart et al. 2022, doi:10.1038/s41597-022-01779-4 (FLAb copy).

Target peptide (SARS-CoV-2 spike, HR2 region): PDVDLGDISGINAS

Each scFv is VH, a 15-residue (Gly4Ser)3 linker, VL, as in the parent Ab-95, and differs from it in the CDRs of the light chain only.
VH: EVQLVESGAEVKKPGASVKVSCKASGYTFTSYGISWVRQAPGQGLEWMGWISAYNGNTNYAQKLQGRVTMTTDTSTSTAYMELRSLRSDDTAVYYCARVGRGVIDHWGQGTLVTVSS
VL: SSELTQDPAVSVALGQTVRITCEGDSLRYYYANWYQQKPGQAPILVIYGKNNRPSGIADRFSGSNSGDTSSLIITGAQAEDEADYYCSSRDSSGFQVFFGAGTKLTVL

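Phage display of a naive human antibody library on the peptide gave the parent. AAYL52 was designed without a model: most single CDR substitutions and a random sample of double and triple ones. In AlphaSeq, yeast of one mating type display the scFv and yeast of the other type display the target. Mating (16 h, 30 °C) was followed by selection of diploids and sequencing of their barcodes. Each replicate has its own calibration line, from reference interactions of the BCL2 family. The assay was run in three technical replicates.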

The whole VL of each variant is written out.
Scale: log10 of Kd in nM, estimated from mating counts; low values are strong binders.
A pair that was not seen in that replicate is written "ND"; this usually means weak binding, but a binder can also be missed.

VL	log10 Kd (nM) by replicate	signal with controls
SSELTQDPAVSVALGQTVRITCEGDSLRYYYANWYQQKPGQAPILVIYGKNNRPFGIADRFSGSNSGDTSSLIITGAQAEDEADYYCSFRDSHGFQVFFGAGTKLTVL	1.78 / 1.94 / 2.03	1 of 9 (2.41)
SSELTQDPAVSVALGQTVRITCEGDSLMYYYMKWYQQKPGQAPILVIYGKNNRPSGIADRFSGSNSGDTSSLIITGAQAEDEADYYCSSRDSSGFQVFFGAGTKLTVL	4.31 / 3.90 / ND	3 of 9 (4.33)
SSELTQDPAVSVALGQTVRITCEKDSLRYYYANWYQQKPGQAPILVIYGKNNRPSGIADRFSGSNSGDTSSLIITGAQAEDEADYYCSSRDSSGFQVFFGAGTKLTVL	4.54 / 3.29 / 2.23	4 of 9 (4.03)
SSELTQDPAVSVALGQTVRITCFGDSLRYYYANWYQQKPGQAPILVIYGKTNRPSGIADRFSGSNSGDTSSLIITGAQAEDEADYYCSSRDNSGFQVFFGAGTKLTVL	2.82 / ND / 4.08	4 of 9 (4.71)
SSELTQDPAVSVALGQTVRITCLNDSLRYYYANWYQQKPGQAPILVIYGKNNRPSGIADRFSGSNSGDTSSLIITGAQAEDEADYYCSSRDSSGMQVFFGAGTKLTVL	ND / 3.85 / 4.40	3 of 9 (4.40)
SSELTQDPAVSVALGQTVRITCHGDSPRYYYANWYQQKPGQAPILVIYGKNNRPSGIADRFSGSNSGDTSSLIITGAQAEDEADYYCSSRDSSGFQVFFGAGTKLTVL	2.89 / 2.77 / 2.46	3 of 9 (3.82)
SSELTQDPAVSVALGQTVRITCEGSLLRYYYANWYQQKPGQAPILVIYGKNNRPSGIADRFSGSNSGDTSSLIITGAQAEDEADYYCQSRDSSGFQVFFGAGTKLTVL	4.98 / 3.44 / ND	4 of 9 (3.94)
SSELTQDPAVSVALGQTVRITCLGDSLRYYYANWYQQKPGQAPILVIYGKKNRPHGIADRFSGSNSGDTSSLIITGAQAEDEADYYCSSRDSSGFQVFFGAGTKLTVL	ND / 4.10 / ND	3 of 9 (3.35)
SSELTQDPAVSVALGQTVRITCEGDSLRYYYKNWYQQKPGQAPILVIYGKNNRPSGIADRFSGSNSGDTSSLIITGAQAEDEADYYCSSRNSSGFQVHFGAGTKLTVL	3.28 / 3.96 / ND	5 of 9 (3.95)
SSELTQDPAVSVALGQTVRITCPGDSLRYYYANWYQQKPGQAPILVIYGKNNRPSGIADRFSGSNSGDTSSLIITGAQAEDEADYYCTSRDSSGFYVFFGAGTKLTVL	4.88 / 5.00 / 3.80	6 of 9 (3.96)
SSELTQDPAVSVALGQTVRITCEGDSLRYYYANWYQQKPGQAPILVIYIHNNRPSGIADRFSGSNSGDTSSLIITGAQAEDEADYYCSSRDSSGFQVRFGAGTKLTVL	5.59 / 3.65 / 4.19	7 of 9 (3.90)
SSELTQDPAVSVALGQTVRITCEGDSLRYYYANWYQQKPGQAPILVIYGKNNRPSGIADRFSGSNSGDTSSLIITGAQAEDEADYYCSVRFSSGFQQFFGAGTKLTVL	4.50 / ND / ND	2 of 9 (3.00)
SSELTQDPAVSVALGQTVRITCEGDSLRYYYANWYQQKPGQAPILVIYGKNNRPSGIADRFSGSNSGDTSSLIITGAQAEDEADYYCSSRSCSYFQVFFGAGTKLTVL	3.04 / 2.80 / 1.51	1 of 9 (3.49)
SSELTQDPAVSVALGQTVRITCEGDSLRYCYANWYQQKPGQAPILVIYWKNNRPSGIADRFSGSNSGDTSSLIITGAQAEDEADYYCSSRDSSGGQVFFGAGTKLTVL	ND / 5.70 / ND	3 of 9 (3.78)
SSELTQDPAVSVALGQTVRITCEGDSLRGYYCWWYQQKPGQAPILVIYGKNNRPSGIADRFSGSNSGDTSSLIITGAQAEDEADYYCSSRDSSGFQVFFGAGTKLTVL	ND / ND / ND	1 of 9 (4.94)
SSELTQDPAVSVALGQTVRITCEGDSLSYYMANWYQQKPGQAPILVIYGVNNRPSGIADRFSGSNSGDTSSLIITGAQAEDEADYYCSSRDSSGFQVFFGAGTKLTVL	2.18 / 2.28 / 1.94	5 of 9 (4.12)
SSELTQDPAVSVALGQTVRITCEGPSFRYYYAIWYQQKPGQAPILVIYGKNNRPSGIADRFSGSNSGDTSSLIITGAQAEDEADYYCSSRDSSGFQVFFGAGTKLTVL	ND / ND / 3.86	1 of 9 (3.36)
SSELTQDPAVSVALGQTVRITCEGDSLRYYYANWYQQKPGQAPILVIYYKNNRRSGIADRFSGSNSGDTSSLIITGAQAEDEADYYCSSRDSSGPQVFFGAGTKLTVL	3.35 / 4.21 / ND	1 of 9 (3.83)
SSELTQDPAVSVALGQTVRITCEGDSLMYYYGNWYQQKPGQAPILVIYGKNNRPSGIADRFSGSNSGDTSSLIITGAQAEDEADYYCSSRDSSGFVVFFGAGTKLTVL	5.00 / 5.06 / ND	6 of 9 (4.15)

Excerpt, the final 3 entries:

VL	log10 Kd (nM) by replicate	signal with controls
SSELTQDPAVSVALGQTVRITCEGPSFRYYYAIWYQQKPGQAPILVIYGKNNRPSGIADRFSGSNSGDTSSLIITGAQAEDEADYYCSSRDSSGFQVFFGAGTKLTVL	ND / ND / 3.86	1 of 9 (3.36)
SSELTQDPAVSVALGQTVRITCEGDSLRYYYANWYQQKPGQAPILVIYYKNNRRSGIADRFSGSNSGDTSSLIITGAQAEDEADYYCSSRDSSGPQVFFGAGTKLTVL	3.35 / 4.21 / ND	1 of 9 (3.83)
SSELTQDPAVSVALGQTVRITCEGDSLMYYYGNWYQQKPGQAPILVIYGKNNRPSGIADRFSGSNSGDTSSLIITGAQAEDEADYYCSSRDSSGFVVFFGAGTKLTVL	5.00 / 5.06 / ND	6 of 9 (4.15)

Empty control strains, which show no peptide, gave a signal in 28% of pairings with library AAYL52; the median was 3.91 and 95% of these signals were weaker than 2.90. No background was subtracted. The control count says in how many pairings with the empty strains this scFv gave a signal, with their mean in brackets.